Source: patent US11485758B2, “Bi-terminal pegylated integrin-binding peptides and methods of use thereof” (The Regents of the University of California, priority 2014, dated 2022)

Tests used:
[1] = Biodistribution in paired DX3puroβ6/DX3puro xenograft mouse model: organs, urine, blood; format: in vivo, mice; settings: athymic nu/nu, kidney, total radioactivity
[2] = test system: αvβ6-negative DX3puro control cell line; test: Cell binding and internalization of radiotracers, DX3puro control cells; format: cell-based, human
[3] = test system: integrin αvβ6-expressing DX3puroβ6 cell line; test: Cell binding and internalization of radiotracers, DX3puroβ6 cells; format: cell-based, human

| Structure (SMILES) | tissue uptake at 4 h [1] | Binding and internalization in DX3puro control, in words [2] | Binding to DX3puroβ6 cells (fraction of total radioactivity) ([3]; 60 min incubation) | Internalized share of bound radioactivity, DX3puroβ6 cells ([3]; of bound radioactivity) |
| --- | --- | --- | --- | --- |
| CC(C)C[C@H](NC(=O)[C@H](CC(=O)O)NC(=O)CNC(=O)[C@H](CCCNC(=N)N)NC(=O)[C@H](CC(C)C)NC(=O)[C@H](CC(N)=O)NC(=O)[C@@H]1CCCN1C(=O)[C@@H](NC(=O)[C@H](C)NC(=O)[C@H](CC(N)=O)NC(=O)CCOCCOCCOCCOCCOCCOCCOCCOCCOCCOCCOCCOCCOCCOCCOCCOCCOCCOCCOCCOCCOCCOCCOCCOCCOCCOCCOCCOCCNC(=O)CN1CCN(CC(=O)O)CCN(CC(=O)O)CC1)C(C)C)C(=O)N[C@@H](CCC(N)=O)C(=O)N[C@H](C(=O)N[C@@H](CC(C)C)C(=O)N[C@@H](C)C(=O)N[C@@H](CCC(N)=O)C(=O)N[C@@H](CCCCN)C(=O)N[C@H](C(=O)N[C@@H](C)C(=O)N[C@@H](CCCNC(=N)N)C(=O)N[C@H](C(N)=O)[C@@H](C)O)C(C)C)C(C)C [Al[^18F]-NOTA-PEG28-A20FMDV2] | 229 %ID/g |  |  |  |
| CC(C)C[C@H](NC(=O)[C@H](CC(=O)O)NC(=O)CNC(=O)[C@H](CCCNC(=N)N)NC(=O)[C@H](CC(C)C)NC(=O)[C@H](CC(N)=O)NC(=O)[C@@H]1CCCN1C(=O)[C@@H](NC(=O)[C@H](C)NC(=O)[C@H](CC(N)=O)NC(=O)CCOCCOCCOCCOCCOCCOCCOCCOCCOCCOCCOCCOCCOCCOCCOCCOCCOCCOCCOCCOCCOCCOCCOCCOCCOCCOCCOCCOCCNC(=O)[C@H](CCC(=O)O)NC(=O)[C@H](CCCCNC(=O)CCCc1ccc(I)cc1)NC(=O)c1ccc(F)cc1)C(C)C)C(=O)N[C@@H](CCC(N)=O)C(=O)N[C@H](C(=O)N[C@@H](CC(C)C)C(=O)N[C@@H](C)C(=O)N[C@@H](CCC(N)=O)C(=O)N[C@@H](CCCCN)C(=O)N[C@H](C(=O)N[C@@H](C)C(=O)N[C@@H](CCCNC(=N)N)C(=O)N[C@H](C(=O)NCCOCCOCCOCCOCCOCCOCCOCCOCCOCCOCCOCCOCCOCCOCCOCCOCCOCCOCCOCCOCCOCCOCCOCCOCCOCCOCCOCCOCCC(N)=O)[C@@H](C)O)C(C)C)C(C)C |  | low | 52% | 56% |
